This passage reports IC50 results from patent publication US5700819A, “2-substituted benzothiazole derivatives and prophylactic and therapeutic agents for the treatment of diabetic complications” (Grelan Pharmaceutical Co., Ltd., priority 1994, dated 1997).

The assay concerns the target T1, Aldose reductase (Sus scrofa, UniProt P80276).
T1 construct: Aldose reductase samples were prepared from porcine lens; from tissue; host or cells: porcine lens
Nature of the assay: Aldose Reductase Inhibition. The class given is biochemical. To be noted: porcine lens aldose reductase; DL-glyceraldehyde 3 mM, NADPH 0.1 mM, pH 6.2, 37° C. As for the experimental part: Aldose reductase samples were prepared from porcine lens according the method by S. Hayman et al., (Journal of Biological Chemistry, 240, p. 877-882 (1965)). In brief, lens of porcine eyes were frozen (-80° C.) until employed. These lenses were homogenized with distilled water and then centrifuged at 10,000×g for 15 minutes. The supernatant was fractionated with 0 to 40% ammonium sulfate and centrifuged at 10,000×g for 10 minutes. The resultant supernatant was dialyzed overnight against 0.05M sodium chloride. The dialyzed solution was used as an aldose reductase sample. […] The mixtures were incubated at 37° C. for 2 minutes for reaction and changes in the absorbance at 340 nm were read using an auto-analyzer (Hitachi Corporation, Model 7070, Japan). The change in the absorbance of a mixed solution including 1% DMSO instead of sample compounds was expresses as 100%. […]

`CN(CC(=O)O)C(=S)CCc1nc2c(F)c(F)cc(F)c2s1` [Example 7-ii), N-[3-(4,5,7-trifluorobenzothiazol-2-yl)-1-thioxopropyl]-N-methylglycine] registered an IC50 of 11 nM. Compound `O=C(O)CN(CCc1ccccc1)C(=O)CCc1nc2c(F)c(F)cc(F)c2s1` [Example 6-ii), N-[3-(4,5,7-trifluorobenzothiazol-2-yl)propionyl]-N-phenethylglycine] registered an IC50 of 21 nM.

One may read the IC50 as the point on the concentration scale where inhibition reaches its midpoint.
